Values quoted from earlier work as cited in patent US20250026848A1, “IDENTIFICATION OF PATHOGENIC IMMUNE CELL SUBSETS IN CHECKPOINT INHIBITOR-INDUCED MYOCARDITIS” (U.S. GOVERNMENT AS REPRESENTED BY THE DEPARTMENT OF …, priority 2021, published 2025).

Test system: ICI myocarditis
Conditions: patients with ICI myocarditis, reference 53; cited from earlier work

Substance: abatacept
- treatment of ICI myocarditis: used effectively to treat ICI myocarditis
